ChEMBL document CHEMBL1127443 (J Med Chem, 1994)

The chains behind the UniProt entries cited, without tags or fusion partners. Where a name states a change or a piece, a line headed by the entry shows the natural chain unless it says otherwise.
UniProt P08908, whole entry: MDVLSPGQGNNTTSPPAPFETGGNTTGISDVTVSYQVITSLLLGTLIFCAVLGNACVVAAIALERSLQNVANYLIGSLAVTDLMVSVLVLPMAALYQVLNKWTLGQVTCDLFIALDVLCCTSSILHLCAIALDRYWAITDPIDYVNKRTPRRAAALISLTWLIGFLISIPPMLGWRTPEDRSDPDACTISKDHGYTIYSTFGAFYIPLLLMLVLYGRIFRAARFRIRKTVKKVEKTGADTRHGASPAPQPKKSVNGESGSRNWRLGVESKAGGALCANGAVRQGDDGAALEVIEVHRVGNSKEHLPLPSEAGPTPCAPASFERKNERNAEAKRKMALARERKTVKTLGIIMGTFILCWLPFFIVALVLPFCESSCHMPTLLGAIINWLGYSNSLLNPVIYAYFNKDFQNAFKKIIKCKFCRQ
UniProt P35563, whole entry: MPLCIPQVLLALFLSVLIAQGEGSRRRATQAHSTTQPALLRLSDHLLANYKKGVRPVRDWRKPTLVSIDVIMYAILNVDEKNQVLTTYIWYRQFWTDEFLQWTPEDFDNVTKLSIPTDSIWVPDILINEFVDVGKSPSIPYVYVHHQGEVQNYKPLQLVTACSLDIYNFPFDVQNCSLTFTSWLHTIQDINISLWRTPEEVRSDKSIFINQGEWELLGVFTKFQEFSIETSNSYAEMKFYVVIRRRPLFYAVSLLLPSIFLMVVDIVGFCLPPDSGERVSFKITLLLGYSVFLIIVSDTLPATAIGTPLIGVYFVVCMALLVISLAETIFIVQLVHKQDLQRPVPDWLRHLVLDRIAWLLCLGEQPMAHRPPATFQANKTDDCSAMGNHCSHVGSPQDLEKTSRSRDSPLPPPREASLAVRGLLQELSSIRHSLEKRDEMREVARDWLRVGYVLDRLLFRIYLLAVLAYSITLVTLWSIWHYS
UniProt Q9JJ16: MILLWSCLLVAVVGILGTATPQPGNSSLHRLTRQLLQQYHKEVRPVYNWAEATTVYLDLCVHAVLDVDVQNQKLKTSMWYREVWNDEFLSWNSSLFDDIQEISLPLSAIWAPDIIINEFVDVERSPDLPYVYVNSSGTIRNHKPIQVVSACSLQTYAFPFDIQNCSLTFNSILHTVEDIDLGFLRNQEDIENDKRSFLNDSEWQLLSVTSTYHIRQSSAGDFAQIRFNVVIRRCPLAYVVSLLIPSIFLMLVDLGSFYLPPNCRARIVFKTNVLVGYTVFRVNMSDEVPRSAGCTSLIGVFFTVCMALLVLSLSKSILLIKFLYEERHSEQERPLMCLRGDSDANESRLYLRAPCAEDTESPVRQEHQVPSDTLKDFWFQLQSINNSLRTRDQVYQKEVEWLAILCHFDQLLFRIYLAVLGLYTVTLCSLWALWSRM

Tests used:
[1] = target: 5-hydroxytryptamine receptor 1A (Homo sapiens, UniProt P08908); assay: biochemical
[2] = target: Serotonin 3 (5-HT3) receptor (Rattus norvegicus, UniProt P35563+Q9JJ16); assay: Binding affinity was measured on 5-hydroxytryptamine 3 receptor in NG-108 cells labeled with [3H]GR-65630; type: cell-based

**Q.** With `CNS(=O)(=O)Cc1ccc2[nH]cc(CCN(C)C)c2c1` as the compound, how does the Ki [1] read?
**A.** Its Ki is 0.33 µM.

**Q.** `NCCc1c[nH]c2ccc(O)cc12` [SEROTONIN] was tested. Which Ki [2] did it give?
**A.** Its Ki is 0.32 µM.
